Test results reported in ChEMBL document CHEMBL6092185, “Discovery of glycosidated glycyrrhetinic acid derivatives: Natural product-based soluble epoxide hydrolase inhibitors” (Eur J Med Chem, 2024).

Tests used:
Mus musculus [1] = species on record: Mus musculus; settings: BALB/c, dose 20.0 mg/kg, route ig, time 5.0 hrs
Mus musculus [2] = species on record: Mus musculus; settings: BALB/c, dose 20.0 mg/kg, route ig, time <= 6.0 hrs

Compound | inhibition (Mus musculus [1]) | inhibition (Mus musculus [2])
CC1(C)[C@@H](O[C@@H]2OC[C@@H](O)[C@@H](O)[C@@H]2O)CC[C@]2(C)[C@H]3C(=O)C=C4[C@H]5C[C@@](C)(CNC(=O)NCC6CCOCC6)CC[C@]5(C)CC[C@@]4(C)[C@]3(C)CC[C@@H]12 | Active; Relatively Slow Onset Of Action With Maximum Inhibition Reached At # Hrs | –
CCC(=O)N1CCC(CNC(=O)NC[C@@]2(C)CC[C@]3(C)CC[C@]4(C)C(=CC(=O)[C@@H]5[C@@]6(C)CC[C@H](O[C@H]7O[C@H](CO)[C@@H](O)[C@H](O)[C@@H]7O)C(C)(C)[C@@H]6CC[C@]54C)[C@@H]3C2)CC1 | – | Not active; Exhibited Weak Activity
CC1(C)[C@@H](O[C@@H]2O[C@H](CO)[C@@H](O)[C@H](O)[C@@H]2O)CC[C@]2(C)[C@H]3C(=O)C=C4[C@H]5C[C@@](C)(CNC(=O)NCC6CCOCC6)CC[C@]5(C)CC[C@@]4(C)[C@]3(C)CC[C@@H]12 | Active; Relatively Slow Onset Of Action With Maximum Inhibition Reached At # Hrs | –
CCC(=O)N1CCC(CNC(=O)NC[C@@]2(C)CC[C@]3(C)CC[C@]4(C)C(=CC(=O)[C@@H]5[C@@]6(C)CC[C@H](O[C@H]7O[C@H](CO)[C@@H](O)[C@H](O)[C@@H]7O)C(C)(C)[C@@H]6CC[C@]54C)[C@H]3C2)CC1 | – | Not active; Exhibited Weak Activity
